Test results reported in ChEMBL document CHEMBL1155995, “Pyrrole[2,3-d]azepino compounds as agonists of the farnesoid X receptor (FXR)” (Bioorg Med Chem Lett, 2009).

Biological target: T1, Bile acid receptor (Homo sapiens, UniProt Q96RI1)
T1 sequence (Q96RI1 whole entry): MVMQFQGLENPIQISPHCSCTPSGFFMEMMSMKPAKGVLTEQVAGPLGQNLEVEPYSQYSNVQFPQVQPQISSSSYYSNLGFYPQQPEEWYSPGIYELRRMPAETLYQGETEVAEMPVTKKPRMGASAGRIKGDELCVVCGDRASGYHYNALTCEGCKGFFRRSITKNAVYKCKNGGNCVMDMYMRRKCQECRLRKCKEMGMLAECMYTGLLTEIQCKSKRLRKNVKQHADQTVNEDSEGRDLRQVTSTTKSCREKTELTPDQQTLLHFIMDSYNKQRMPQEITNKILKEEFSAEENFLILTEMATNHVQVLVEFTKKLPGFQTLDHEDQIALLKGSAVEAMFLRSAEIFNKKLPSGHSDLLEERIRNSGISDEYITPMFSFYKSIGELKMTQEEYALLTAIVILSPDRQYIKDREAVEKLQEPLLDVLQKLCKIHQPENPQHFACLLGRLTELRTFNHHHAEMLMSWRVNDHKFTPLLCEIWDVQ

EC50	SMILES
6.5 nM	CC(C)OC(=O)C1=CN(C(=O)C2CCCCC2)CC(C)(C)c2cc(C#N)[nH]c21
35 nM	CC(C)OC(=O)C1=CN(C(=O)c2ccc(C#N)cc2)CC(C)(C)c2cc(C#N)[nH]c21
12 nM	CC(C)OC(=O)C1=CN(C(=O)c2cccc(Cl)c2)CC(C)(C)c2cc(C#N)[nH]c21
